Drawing on ChEMBL document CHEMBL3797118, “New Colchicine-Derived Triazoles and Their Influence on Cytotoxicity and Microtubule Morphology” (ACS Med Chem Lett, 2016), this text covers IC50 for three compounds.

Amino acid sequences for entries named in this document (tags omitted). A change or cut given only in a name is not applied to a line headed by its entry.
UniProt P02554: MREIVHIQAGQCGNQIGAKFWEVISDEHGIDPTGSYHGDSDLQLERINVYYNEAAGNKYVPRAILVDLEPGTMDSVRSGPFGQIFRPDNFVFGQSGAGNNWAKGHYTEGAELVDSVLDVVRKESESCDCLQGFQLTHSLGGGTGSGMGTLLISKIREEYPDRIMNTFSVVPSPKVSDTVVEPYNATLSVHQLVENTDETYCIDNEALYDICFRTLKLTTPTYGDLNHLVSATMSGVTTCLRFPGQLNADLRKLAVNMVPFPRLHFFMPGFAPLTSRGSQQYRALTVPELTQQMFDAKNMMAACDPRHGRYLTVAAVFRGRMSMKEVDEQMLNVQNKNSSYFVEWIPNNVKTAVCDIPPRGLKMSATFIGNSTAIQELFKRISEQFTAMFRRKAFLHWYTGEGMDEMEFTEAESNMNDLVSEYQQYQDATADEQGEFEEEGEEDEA
UniProt P02550: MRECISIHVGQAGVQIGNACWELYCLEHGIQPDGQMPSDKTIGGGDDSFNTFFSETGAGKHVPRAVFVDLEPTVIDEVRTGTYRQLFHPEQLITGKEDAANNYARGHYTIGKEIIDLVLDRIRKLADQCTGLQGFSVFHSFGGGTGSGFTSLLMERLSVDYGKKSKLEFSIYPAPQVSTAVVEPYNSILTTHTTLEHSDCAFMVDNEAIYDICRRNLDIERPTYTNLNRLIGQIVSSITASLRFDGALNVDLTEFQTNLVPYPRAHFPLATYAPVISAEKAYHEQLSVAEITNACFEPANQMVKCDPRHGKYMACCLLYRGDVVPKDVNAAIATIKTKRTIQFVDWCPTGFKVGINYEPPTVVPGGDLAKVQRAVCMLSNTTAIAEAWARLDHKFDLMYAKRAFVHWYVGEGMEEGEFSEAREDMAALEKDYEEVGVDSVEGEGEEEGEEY

The experiment has as its target Tubulin (Sus scrofa, UniProt P02554+P02550). Put plainly: Inhibition of porcine brain tubulin polymerization measured every 1 min for 60 mins by microplate reader analysis.
As to `COc1cc2c(c(OC)c1OC)-c1ccc(OC)c(=O)cc1[C@@H](n1cc(COC(=O)CCNC(=O)OC(C)(C)C)nn1)CC2`, the IC50 is recorded as 2.44 nM. This lies in the single-digit nanomolar range.
`COc1cc2c(c(OC)c1OC)-c1ccc(OC)c(=O)cc1[C@@H](n1cc(CCC(=O)OCc3ccc(F)cc3)nn1)CC2` showed an IC50 of 2.1 nM.
Then `COc1cc2c(c(OC)c1OC)-c1ccc(OC)c(=O)cc1[C@@H](n1cc(COC(=O)[C@H](Cc3ccccc3)NC(=O)OC(C)(C)C)nn1)CC2`, with 3.2 nM.
